This is one part of the list. Potency and affinity values are given separately. Activity calls are given as the source filed them. No stated cut-off is given here; in the data, active means activation above about 50% (passing the limit was not always enough); inactive means the rest.

Chains of the proteins cited; added tags and fusions are not shown. Lines headed by an entry give the natural chain unless they say otherwise; changes in a name come on top.
UniProt P41145: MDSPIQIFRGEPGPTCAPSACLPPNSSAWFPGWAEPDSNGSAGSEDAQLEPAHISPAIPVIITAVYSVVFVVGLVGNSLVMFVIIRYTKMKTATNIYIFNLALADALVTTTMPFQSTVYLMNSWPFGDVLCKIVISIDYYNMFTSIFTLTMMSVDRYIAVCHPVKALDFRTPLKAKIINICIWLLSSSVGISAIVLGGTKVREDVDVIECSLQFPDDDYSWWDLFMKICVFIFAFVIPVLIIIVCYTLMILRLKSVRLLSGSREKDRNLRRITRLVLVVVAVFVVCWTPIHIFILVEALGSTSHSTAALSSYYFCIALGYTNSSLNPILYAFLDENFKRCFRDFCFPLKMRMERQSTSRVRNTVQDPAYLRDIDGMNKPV

Data on 26 molecules can be found in PubChem BioAssay AID1777 (Sanford-Burnham Center for Chemical Genomics, 2009).

The assay deals with Kappa-type opioid receptor (Homo sapiens) (UniProt P41145). The assay is described as follows: kappa opioid receptor activators – cell-based, luminescence, uHTS, primary screen (AID 1777). To be noted: KOR beta-arrestin recruitment, at 10 µM, active compounds read high. (In general: Recruitment of arrestin is a read-out of receptor activation apart from second messengers.)
On to `CCCNC(=O)CC1C(=O)N(Cc2ccccc2)C(C)c2nc3ccccc3n21` (stereo unspecified), for which the activation is inactive: 2.9%.
Regarding `Cc1nc2ccccc2n1CC(=O)NCCN1CCCC1`, the activation is inactive: -0.3%.
In the case of `CC1(C)c2ccccc2N2CCC(=O)NC21/C=C/c1ccco1` (stereo unspecified) it was inactive: 0.2%.
Take `Cc1ccsc1/C=N/NC(=O)Cn1cnc2ccccc21`: the activation was inactive: 10.6%.
The figure for `ClCCSc1nnc(-c2cccnc2)o1` is inactive: -5.2%; for `Cn1c(=O)c2c(ncn2CC(=O)N2CCN(c3cccc(Cl)c3)CC2)n(C)c1=O` it is inactive: -1.8%.
The figure for `CC(C)NC(=O)Cn1c(SCC(=O)c2ccc(F)cc2)nc2ccccc21` is inactive: 3.4%; for `Cc1ccc2c(c1)C1CN(C)CCC1N2C(=O)CCCN1C(=O)c2cccc3cccc(c23)C1=O` (stereo unspecified) it is inactive: -1.3%.
The figure for `N=c1n(CCN2CCCCC2)c2ccccc2n1CC(=O)c1cccc([N+](=O)[O-])c1` is inactive: 1.5%.
As for `COc1ccccc1NC(=O)N1CCn2c(nc3ccccc32)C1`, the activation was inactive: -4%.
Turning to `CCC(=O)Nc1nc2ccccc2n1CCN(CC)CC`, the activation was inactive: -1.9%.
Regarding `CC(C)c1ccc(OP(=O)(Nc2ccccn2)Oc2ccccc2F)cc1` (stereo unspecified), the activation is inactive: 1.5%.
With `c1csc(CNc2nc3ccccc3n2CCN2CCOCC2)c1`, the activation was inactive: 6.8%.
In the case of `CCC(C(=O)NC1CCCCC1)n1c(SCc2ccccc2F)nc2ccncc21` (stereo unspecified), the activation is inactive: 2.7%.
In the case of `Oc1ccccc1CNc1nc2ccccc2n1CCN1CCCCC1` it was inactive: 5.1%; in that of `Cc1nc2ccccc2n1C1CCN(Cc2nnnn2CCc2ccccc2)CC1`, inactive: -3.4%; in that of `COc1ccc(CCNC(=O)[C@@H](NC(=O)N2CCn3c2nc2ccccc23)C(C)C)cc1OC`, inactive: 2.6%.
Turning to `N=c1n(CCN2CCCCC2)c2ccccc2n1CC(=O)c1ccc(Cl)c(Cl)c1`, the activation was inactive: 3.5%.
The figure for `CC1c2nc3ccccc3n2C(CC(=O)NCCCN2CCOCC2)C(=O)N1Cc1ccccc1` (stereo unspecified) is inactive: -1.6%; for `O=[N+]([O-])c1cc([N+](=O)[O-])c(-c2ccn[nH]2)s1` it is inactive: -0.5%.
The figure for `O=C(Cn1c(-c2ccccn2)nc2ccccc21)NCCN1CCOCC1` is inactive: -2.4%.
Consider `O=C(Cn1c2[n+](c3ccc(C(F)(F)F)cc31)CCCCC2)Nc1c(F)cccc1F`, for which the activation was inactive: -1.5%.
The figure for `Cn1c(=O)c2c(ncn2CC(=O)Nc2nc(-c3ccccc3Cl)cs2)n(C)c1=O` is inactive: 6.1%; for `C=C(C)Cn1c(=O)c2c(nc3n2CCN3c2cccc(Cl)c2C)n(C)c1=O` it is inactive: 14.2%.
As for `CCN(CC)C(=S)SC(NC=O)C(Cl)(Cl)Cl` (stereo unspecified), the activation is inactive: -3%.
The figure for `O=C(Nc1nc2ccccc2n1CCN1CCOCC1)c1cn(-c2ccccc2)nc1-c1ccccc1` is inactive: 2%.
